Test results published in US20030171347A1, “Sigma receptor antagonists having anti-cocaine properties and uses thereof” (priority 1998, published 2003).

target: opiate receptors (Rattus norvegicus, UniProt P34975); experiment: Opiate receptor competition binding; settings: read-out: Opiate; rat brain homogenates, [3H]etorphine or [3H]bremazocine

SMILES	IC50 [µM]
COc1cccc(CC(=O)N(C)CCN2CCCC2)c1 [YZ-005]	> 10
COc1ccc(CCN(C)CCN2CCCC2)cc1	> 10
CCN(CCc1ccc(Cl)c(Cl)c1)CCN1CCCC1	> 10
CN(CCc1ccccc1N)CCN1CCCC1 [YZ-032]	> 10
COc1ccccc1CC(=O)N(C)CCN1CCCC1 [YZ-008]	> 10
CN(CCc1cccc([N+](=O)[O-])c1)CCN1CCCC1 [YZ-027]	> 10
C=CCN(CCc1ccc(Cl)c(Cl)c1)CCN1CCCC1	> 10
CN(CCc1ccc(Cl)c(Cl)c1)CCN1CCCC1	> 10
CN(CCc1ccc(Cl)c(Cl)c1)CCN1CCCCCC1	> 10
COc1cccc(CCN(C)CCN2CCCC2)c1	> 10
COc1ccc(CC(=O)N(C)CCN2CCCC2)cc1 [YZ-007]	> 10
COc1ccccc1CCN(C)CCN1CCCC1	> 10
CN(CCc1ccc(N)cc1)CCN1CCCC1 [YZ-030]	> 10

system: Male, Swiss Webster mice; experiment: Attenuation of cocaine-induced convulsions, systemic pre-treatment; settings: doses that attenuated cocaine-induced convulsions, i.p., mice

SMILES	side effect at therapeutic doses
OC(CCCN1CCC(O)(c2ccc(Cl)cc2)CC1)c1ccc(F)cc1 (stereo not drawn) [Reduced haloperidol, reference compound]	marked sedation

same assay, conditions: historic sigma compounds 0-60 mg/kg i.p. 15 min before cocaine 60 mg/kg i.p.; observed 30 min

SMILES	attenuation of cocaine-induced convulsions (proportion of mice convulsing)
OC(CCCN1CCC(O)(c2ccc(Cl)cc2)CC1)c1ccc(F)cc1 (stereo not drawn) [Reduced haloperidol, reference compound]	significant attenuation
